# Measured values from PubChem BioAssay AID1564 (The Scripps Research Institute Molecular Screening Center, 2009).
# Amino acid sequences for entries named in this document (tags omitted).
# UniProt P21453, whole entry, looked up: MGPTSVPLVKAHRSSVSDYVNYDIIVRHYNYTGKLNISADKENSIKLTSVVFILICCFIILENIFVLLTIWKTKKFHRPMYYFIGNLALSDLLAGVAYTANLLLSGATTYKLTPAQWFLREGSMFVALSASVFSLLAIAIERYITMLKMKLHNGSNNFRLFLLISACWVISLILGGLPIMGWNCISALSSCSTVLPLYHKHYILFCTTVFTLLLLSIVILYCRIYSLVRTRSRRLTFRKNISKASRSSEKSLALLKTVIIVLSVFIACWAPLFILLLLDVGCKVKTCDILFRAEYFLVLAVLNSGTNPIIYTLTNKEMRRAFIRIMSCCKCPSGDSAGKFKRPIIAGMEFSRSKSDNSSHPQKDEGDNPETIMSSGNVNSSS
# The list shows a part of the results, in another mix than the full data. The source made the active and inactive calls. Rule as the data show it: active = inhibition above about 40%; inactive = the rest.
# Biological target: Sphingosine 1-phosphate receptor 1 (Homo sapiens) (UniProt P21453)
# Experiment: blockade of human S1P1 receptor – cell-based, counter-screen for S1P4 antagonist project (AID 1564);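 also: receptor stimulated with S1P near its EC80; 0% = agonist stimulated wells and 100% = vehicle only wells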
# Conditions: cell-based S1P1 antagonist counterscreen, at 4.98 µM, stronger effect = higher value
smiles,measurement,value
C[N+]1=C2C=CC=CC=C2SC12C([N+](=O)[O-])=CC([N+](=O)[O-])=C[C-]2[N+](=O)[O-] (stereo unspecified),inhibition,active: 46%
